The source of these data is publication PMC4411898, “Impact of kinesin Eg5 inhibition by 3,4-dihydropyrimidin-2(1H)-one derivatives on various breast cancer cell features” (BMC Cancer, 2015).

Assay [1] relates to MCF-7 cells. In words: CFSE proliferation assay, MCF-7. The following applies: 72 h, IC50 concentration of each compound. The class given is cell-based, human. As to the method: (§1) For proliferation assays, cells were treated with IC50 concentrations of each compound. Adherent and floating cells were harvested at the same tube and pelleted by centrifugation at 300 g for 5 minutes and stained. Data acquisition of these two fractions put together was performed on a FACSCalibur flow cytometer using CellQuest software and analysed using the FloJo Software. […] After adhesion, cells were treated with DHPMs or maintained in culture medium only (control) for 72 h. The percentage of proliferative cells was calculated based on the CFSE fluorescence profile analysis of the tested samples compared to that of the fixed undivided control cells (treated with 10 μM of colchicine) using the FlowJo software.

Assay [2] has as its system MDA-MB-231 cells. Briefly: CFSE proliferation assay, MDA-MB-231. The class given is cell-based, human. The following applies: 72 h, IC50 concentration of each compound. Here is the method:
as §1

Take `CC1(C)CC(=O)C2=C(C1)NC(=S)NC2c1cccc(O)c1` (centres unmarked) [Compound 4bt, Dimethylenastron]: the “Inhibition of cell proliferation, MCF-7” value in assay [1] is “Approximately 50%”. For the same molecule, the “Inhibition of cell proliferation, MDA-MB-231” value in assay [2] is listed as “Approximately 50%”.
